The data set is described as follows: Beta glucan gel mediated oral delivery of nutraceuticals (absorption, pharmacokinetics). The text has this:
Beta-glucan compositions can be used to delivery other nutrients or therapeutic molecule via oral delivery.

SMILES strings stand for the structures.

Take `O=S(=O)([O-])[O-].[Fe+2]` [iron sulfate]: the regular absorption rate (iron sulfate without beta glucan) was about 1%. Also, under “with Beta glucan, given orally”, the “absorption enhancement by Beta glucan” value was 60 folds.

Source of the values: patent US20230024537A1, “Oral Delivery Compositions for Obesity Management” (BOARD OF REGENTS, THE UNIVERSITY OF TEXAS SYSTEM, priority 2021, published 2023).
